## scFv variants of Ab-14 (heavy chain) against a SARS-CoV-2 spike peptide

From the AlphaSeq antibody data of Li et al. 2023 (doi:10.1038/s41467-023-39022-2), copy in the FLAb collection.

Target peptide (SARS-CoV-2 spike, HR2 region): PDVDLGDISGINAS

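The starting antibody came from a phage panning campaign against this peptide. The variants were designed computationally from a first round of random CDR variants and then made and measured. Several design methods are mixed in this list. The scFvs were displayed on barcoded MATa yeast, the peptide on MATalpha yeast. Mating (16 h, 30 °C) was followed by selection of diploids and sequencing of their barcodes. Read counts were normalised to the haploid input and turned into Kd by a linear fit to BCL2-family pairs of known affinity, for each replicate. Each pool was mated in six replicate cultures.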

Parent scFv Ab-14: VH joined to VL by a 15-residue (Gly4Ser)3 linker. Changes lie in the heavy chain CDRs alone.
VH: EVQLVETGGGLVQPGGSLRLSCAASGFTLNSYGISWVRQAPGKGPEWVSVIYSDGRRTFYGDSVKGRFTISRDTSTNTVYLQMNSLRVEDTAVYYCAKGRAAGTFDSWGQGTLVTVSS
VL: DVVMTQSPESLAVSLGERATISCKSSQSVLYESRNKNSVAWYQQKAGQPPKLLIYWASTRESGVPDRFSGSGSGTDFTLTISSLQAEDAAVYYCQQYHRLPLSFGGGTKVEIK

Variants are written as CDR1, CDR2 and CDR3 of the heavy chain (limits as in the source). Parent: GFTLNSYGIS, VIYSDGRRTFYGDSVK, GRAAGTFDS. Scale: log10 of Kd in nM, estimated from mating counts; low values are strong binders. A pair that was not seen in that replicate is written "ND"; this usually means weak binding, but a binder can also be missed. Some sequences occur more than once in the pool; their replicates are listed entry by entry, parted by semicolons. As a blank, each scFv also met three strains without target: over all heavy chain designs, 1% of these pairings were detected, typically at 2.08 and seldom below 0.84. The authors averaged sequences with at least three values out of six and counted those with two or fewer as poor binders. The range of this assay differs from that of the first round, and the authors advise against merging the two. Of ten entries with the parent sequence, four were seen in most replicates (averages 0.34 to 2.37), three in one and three in none, so single entries are noisy.

{"CDR-H1": "GFDLESYGIS", "CDR-H2": "VIYADGRRTAYADSVK", "CDR-H3": "GNVAGTFDV", "log10 Kd, replicates": "-0.15 -0.90 -0.82 -0.42 -0.29 -0.80"}
{"CDR-H1": "GFTLNDYGIS", "CDR-H2": "VIYSDGMRTFYGDSVK", "CDR-H3": "GREAGTFDS", "log10 Kd, replicates": "ND 1.42 ND 0.09 0.77 ND"}
{"CDR-H1": "GFTLNSYGIS", "CDR-H2": "VIYSDGRRTFYHDSVK", "CDR-H3": "GRAAGTFDW", "log10 Kd, replicates": "ND 2.23 ND ND ND ND"}
{"CDR-H1": "GFELNSYGIS", "CDR-H2": "VIYSDGRRTFYGDSVK", "CDR-H3": "GNEAGTFDS", "log10 Kd, replicates": "-0.30 -0.38 -0.60 -0.05 -0.03 0.46"}
{"CDR-H1": "GFTLDDYGIS", "CDR-H2": "VIYSDGRRTFYGDSVK", "CDR-H3": "GGAAGTFDS", "log10 Kd, replicates": "0.44 0.55 0.71 0.59 0.22 0.42"}
{"CDR-H1": "GFDLNEYGIS", "CDR-H2": "VIYADGKRTFYTDNVK", "CDR-H3": "GQNAGTFDV", "log10 Kd, replicates": "-0.98 -0.99 -1.05 -1.09 -1.37 -0.93"}
{"CDR-H1": "PFDLNSYGIS", "CDR-H2": "VIYSDGRRTFYADSVK", "CDR-H3": "GQTAGTFDS", "log10 Kd, replicates": "0.16 0.55 ND -0.91 0.41 0.99"}
{"CDR-H1": "GFNLNSYGIS", "CDR-H2": "VIYSDGRRTFYGDSVK", "CDR-H3": "GRAAGTFRS", "log10 Kd, replicates": "ND ND ND ND ND ND"}
{"CDR-H1": "GFTLESYGIS", "CDR-H2": "VIYSDGRRTFYGDSVK", "CDR-H3": "GKAAGTFDS", "log10 Kd, replicates": "ND 1.47 1.23 1.78 ND ND"}
{"CDR-H1": "GFDLNEYGIS", "CDR-H2": "VIYADGMRTAYSDKVK", "CDR-H3": "GGNAGTFDV", "log10 Kd, replicates": "-0.33 -0.67 -0.36 -1.22 -1.06 -0.53"}
{"CDR-H1": "GFSIDEYGIS", "CDR-H2": "VIYADGTRTAYADDVK", "CDR-H3": "GAYDTVAVL", "log10 Kd, replicates": "ND ND ND ND 3.36 ND"}
{"CDR-H1": "GFTLIEYGIS", "CDR-H2": "VIYSDGYRTFYGDSVK", "CDR-H3": "GRAAVTHLQ", "log10 Kd, replicates": "ND ND ND ND ND ND"}
{"CDR-H1": "GFKLNSYGIS", "CDR-H2": "VIYSDGRRTFYGDSVK", "CDR-H3": "GRTAGTFDL", "log10 Kd, replicates": "1.86 1.61 1.22 1.57 1.43 1.57"}
{"CDR-H1": "GFSLNSYGIS", "CDR-H2": "VIYSDGRRTAYGDSVK", "CDR-H3": "GRAAGTFDD", "log10 Kd, replicates": "0.91 0.91 0.46 0.55 0.52 0.50"}
{"CDR-H1": "GFDLNEYGIS", "CDR-H2": "VIYADGMRTYYIDSVK", "CDR-H3": "GEQAGTFDL", "log10 Kd, replicates": "-0.62 -0.65 -0.64 -0.74 0.01 -0.35"}
{"CDR-H1": "GFDLNEYGIS", "CDR-H2": "VIYADGKRTAYVDSVK", "CDR-H3": "GEVAGTFDV", "log10 Kd, replicates": "-0.12 -0.55 -1.03 -0.77 -0.60 -0.31"}
{"CDR-H1": "GFDLNEYGIS", "CDR-H2": "VIYADGVRTYYADSVK", "CDR-H3": "GNEAGTFDV", "log10 Kd, replicates": "-1.05 -1.04 -1.61 -1.10 -0.99 -0.85"}
{"CDR-H1": "GFDLNEYGIS", "CDR-H2": "VIYADGRRTAYADSVK", "CDR-H3": "GANAGTFDI", "log10 Kd, replicates": "-0.56 0.17 -0.81 -0.27 -0.52 -0.84"}
{"CDR-H1": "GFTLNDYGIS", "CDR-H2": "VIYSDGRRTFYGDSVK", "CDR-H3": "GRCAGTFDI", "log10 Kd, replicates": "ND ND ND ND ND ND"}
{"CDR-H1": "GFDLNEYGIS", "CDR-H2": "VIYADGMRKAYADDVK", "CDR-H3": "GENAGTFDV", "log10 Kd, replicates": "-1.61 -1.40 -1.18 -0.82 -0.86 -1.10"}
{"CDR-H1": "KFDIEEYGIS", "CDR-H2": "VIYADGKRTSYSNAVK", "CDR-H3": "GNQGRTFNT", "log10 Kd, replicates": "ND ND ND ND ND ND"}
{"CDR-H1": "GFDLNEYGIS", "CDR-H2": "VIYADGMRTAYSDDVK", "CDR-H3": "GNQAGTFDL", "log10 Kd, replicates": "0.12 -0.21 0.06 -0.11 0.21 -0.04"}
{"CDR-H1": "GFDLNEYGIS", "CDR-H2": "VIYADGERTAYADSVK", "CDR-H3": "GENAGTFDV", "log10 Kd, replicates": "0.54 0.64 0.43 0.05 0.70 1.07"}
{"CDR-H1": "GFTLNDYGIS", "CDR-H2": "VIYSDGRRTFYGDSVK", "CDR-H3": "GRQAGTFDS", "log10 Kd, replicates": "0.36 -0.27 0.15 -0.12 -0.23 -0.06; 0.83 0.98 0.78 0.10 0.87 1.96"}
{"CDR-H1": "GFDLESYGIS", "CDR-H2": "VIYADGSRTAYADSVK", "CDR-H3": "GNVAGTFDM", "log10 Kd, replicates": "-0.49 -0.88 -0.24 -0.57 -0.80 -0.50"}
{"CDR-H1": "GFALNEYGIS", "CDR-H2": "VIYADGFRRAYQDKVK", "CDR-H3": "GVLVGNFSV", "log10 Kd, replicates": "ND ND ND ND ND ND"}
{"CDR-H1": "GFTLNSYGIS", "CDR-H2": "VIYSDGRRTFYGDSVK", "CDR-H3": "GEAAGRFKS", "log10 Kd, replicates": "1.44 ND ND ND ND ND"}
{"CDR-H1": "GFTLNSYGIS", "CDR-H2": "VIYSDGRRTAYGDSVK", "CDR-H3": "GRGAGTFES", "log10 Kd, replicates": "0.17 0.04 -0.06 0.48 -0.51 -0.31"}

The first 4 variants above that were never detected:

{"CDR-H1": "GFNLNSYGIS", "CDR-H2": "VIYSDGRRTFYGDSVK", "CDR-H3": "GRAAGTFRS", "log10 Kd, replicates": "ND ND ND ND ND ND"}
{"CDR-H1": "GFTLIEYGIS", "CDR-H2": "VIYSDGYRTFYGDSVK", "CDR-H3": "GRAAVTHLQ", "log10 Kd, replicates": "ND ND ND ND ND ND"}
{"CDR-H1": "GFTLNDYGIS", "CDR-H2": "VIYSDGRRTFYGDSVK", "CDR-H3": "GRCAGTFDI", "log10 Kd, replicates": "ND ND ND ND ND ND"}
{"CDR-H1": "KFDIEEYGIS", "CDR-H2": "VIYADGKRTSYSNAVK", "CDR-H3": "GNQGRTFNT", "log10 Kd, replicates": "ND ND ND ND ND ND"}